This note sets out measurements from patent US20170198006A1, “PRMT5 INHIBITORS AND USES THEREOF” (Epizyme, Inc., priority 2014, published 2017).

Chains of the proteins cited; added tags and fusions are not shown. A line that says so, or that is headed by a name, gives the form on record, which may keep a tag or linker. Residues count along the entry.
UniProt O14744, 2-637 with tags or gaps: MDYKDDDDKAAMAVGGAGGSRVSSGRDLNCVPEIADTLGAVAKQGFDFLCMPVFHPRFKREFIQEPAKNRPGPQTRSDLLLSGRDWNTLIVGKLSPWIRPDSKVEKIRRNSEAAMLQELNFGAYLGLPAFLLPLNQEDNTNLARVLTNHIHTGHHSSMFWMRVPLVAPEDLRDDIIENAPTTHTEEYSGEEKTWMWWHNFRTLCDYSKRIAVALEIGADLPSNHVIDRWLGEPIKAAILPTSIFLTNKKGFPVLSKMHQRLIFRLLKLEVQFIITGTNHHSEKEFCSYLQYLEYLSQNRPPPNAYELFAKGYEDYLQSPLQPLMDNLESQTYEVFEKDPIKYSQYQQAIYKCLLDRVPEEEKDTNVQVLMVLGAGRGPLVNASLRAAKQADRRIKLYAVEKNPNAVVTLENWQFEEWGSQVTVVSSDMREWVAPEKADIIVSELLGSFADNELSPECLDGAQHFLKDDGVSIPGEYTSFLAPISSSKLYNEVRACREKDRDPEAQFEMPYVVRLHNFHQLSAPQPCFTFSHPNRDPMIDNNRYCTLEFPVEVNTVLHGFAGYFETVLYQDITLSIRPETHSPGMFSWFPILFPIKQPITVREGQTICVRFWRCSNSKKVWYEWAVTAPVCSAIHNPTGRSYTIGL
UniProt Q9BQA1, 2-342 with tags or gaps partner limits assumed: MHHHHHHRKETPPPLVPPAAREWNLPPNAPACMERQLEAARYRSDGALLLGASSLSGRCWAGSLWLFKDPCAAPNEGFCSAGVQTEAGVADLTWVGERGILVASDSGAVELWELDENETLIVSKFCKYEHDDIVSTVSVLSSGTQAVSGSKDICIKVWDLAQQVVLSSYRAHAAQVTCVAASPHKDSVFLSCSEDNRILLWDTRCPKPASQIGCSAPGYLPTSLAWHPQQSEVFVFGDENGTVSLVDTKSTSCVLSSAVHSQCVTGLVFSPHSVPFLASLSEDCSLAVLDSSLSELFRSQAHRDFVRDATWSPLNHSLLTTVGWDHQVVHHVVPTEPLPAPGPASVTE

For this assay, the target named is PRMT5/MEP50 (Homo sapiens, UniProt O14744). Nature of the assay: PRMT5 Biochemical Assay (PRMT5/MEP50 enzyme assay on histone H4 peptide substrate, 3H-SAM Flashplate). Conditions: read-out: Biochemical IC50.

As to `CN(C[C@H]1C[C@@H](n2ccc3c(N)ncnc32)[C@H](O)[C@@H]1O)[C@H]1C[C@H](c2nc3cc(Cl)c(C(F)(F)F)cc3[nH]2)C1`, the IC50 – broadly, the concentration that gives 50% inhibition – is 101 to 1000 nM.

Regarding `CN(CCNc1ccccc1)C[C@H]1O[C@@H](n2cnc3c(N)ncnc32)[C@H](O)[C@@H]1O`, the IC50 was less than 100 nM.

For the compound `NCCN(CCCc1cnc[nH]1)C[C@H]1O[C@@H](n2cnc3c(N)ncnc32)[C@H](O)[C@@H]1O`, the IC50 was less than 100 nM.

In the case of `CN(CCN1CCCN(c2ccccn2)CC1)C[C@H]1OC(n2cnc3c(N)ncnc32)[C@H](O)[C@@H]1O` (stereo partly shown), the IC50 was in the range of 101 to 1000 nM.
